This is a selection; strong and weak results do not stand in their true shares. Calls of active or inactive are those of the source.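 How the source made its calls: active means compounds whose plate-normalised and pattern-corrected inhibition of the luciferase reporter signal at the single screening dose is 50% or more; inactive means the rest.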
experiment: inhibitors of TROY-driven NF-kB signaling, primary screen, Q293 LMP1-TROYcd cells, NF-kB luciferase, uHTS (AID 1347056); conditions: Q293 LMP1-TROYcd NF-kB luciferase reporter, 4 h; at 10 µM; stronger effect = higher value

Question: For `CN(C)C1(CNC(=O)c2ccc(S(C)(=O)=O)cc2)CCCCC1`, which inhibition is on record?
Answer: The inhibition was inactive: 11.2%.

Question: With `O=C(/C=C/c1ccccc1)OC1CN2CCC1CC2` (configuration not stated) as the molecule, how does the inhibition read?
Answer: Its inhibition is inactive: -23.3%.

Question: For `CCCC1OP(=O)(Nc2ccccc2)OCC1CC` (configuration not stated), which inhibition is on record?
Answer: Its inhibition is inactive: 4.07%.

Question: Which inhibition does the source give for `NC(=O)Nc1ccc([As](=O)(O)O)cc1` here?
Answer: Its inhibition is inactive: 3.23%.

Question: For `N#CCCN(C(=O)COC(=O)C(O)(c1ccccc1)c1ccccc1)c1ccc(F)cc1`, which inhibition is on record?
Answer: Its inhibition is inactive: -13.2%.

Question: For `CN(C(=O)Cc1ccccc1)[C@@H]1CC[C@]2(CCCO2)C[C@H]1N1CCCC1`, which inhibition is on record?
Answer: Its inhibition is inactive: -12.9%.

Question: With `CCOP1(=S)c2c(C)nn(CCC#N)c2N=C(c2ccc(F)cc2)N1C` (configuration not stated) as the molecule, how does the inhibition read?
Answer: The inhibition was inactive: -21.7%.

Question: With `O=[N+]([O-])c1ccc2c(c1)nnn2O` as the molecule, how does the inhibition read?
Answer: The inhibition was inactive: 3.13%.

Question: Which inhibition does the source give for `CN(C)C(=O)c1cc([N+](=O)[O-])cc2c1-c1c(cc([N+](=O)[O-])cc1[N+](=O)[O-])C2=O` here?
Answer: Its inhibition is inactive: 48%.

Question: Which inhibition does the source give for `CN(C(=O)Cc1ccc(Cl)c(Cl)c1)[C@H]1CC[C@@]2(CCCO2)C[C@@H]1N1CCCC1` here?
Answer: The inhibition was inactive: 4.7%.

Question: With `CCOP1(=S)c2c(C)nn(CCC#N)c2N=C(c2ccccc2F)N1C` (configuration not stated) as the molecule, how does the inhibition read?
Answer: Its inhibition is inactive: 3.83%.

Question: With `O=P(Nc1nccs1)(Oc1ccccc1)Oc1ccccc1` as the molecule, how does the inhibition read?
Answer: Its inhibition is inactive: -2.52%.

Question: For `O=P(Nc1nccs1)(c1ccccc1)c1nc2ccccc2s1` (configuration not stated), which inhibition is on record?
Answer: The inhibition was inactive: 1.37%.

Question: Which inhibition does the source give for `CS(=O)(=O)c1cc([N+](=O)[O-])c2no[n+]([O-])c2c1` here?
Answer: Its inhibition is inactive: -5.73%.

Question: For `Nc1ccccc1[As](=O)(O)c1ccccc1`, which inhibition is on record?
Answer: The inhibition was inactive: -8.31%.

Question: With `O=C(O)COc1ccc([As](=O)(O)O)cc1[N+](=O)[O-]` as the molecule, how does the inhibition read?
Answer: Its inhibition is inactive: -16.7%.

Question: For `Nc1cccc2c([As](=O)(O)O)cccc12`, which inhibition is on record?
Answer: The inhibition was inactive: -3.21%.

Question: Which inhibition does the source give for `Cc1ccc(NCCc2c([N+](=O)[O-])cc([N+](=O)[O-])cc2[N+](=O)[O-])cc1` here?
Answer: The inhibition was inactive: 17.6%.

Question: Which inhibition does the source give for `CCCOP(=S)(Nc1nc(N)cc(=O)[nH]1)OCCC` here?
Answer: The inhibition was inactive: -6.69%.

Question: For `COc1cc(C2NCCC3(OCCO3)C2(C)C)cc(OC)c1OC` (configuration not stated), which inhibition is on record?
Answer: Its inhibition is inactive: 20.1%.

Question: For `CCOP(=O)(Nc1cccc2ccccc12)OCC`, which inhibition is on record?
Answer: The inhibition was inactive: 2.02%.

Question: For `O=C(OC1CN2CCC1CC2)c1ccc(Cl)cc1` (configuration not stated), which inhibition is on record?
Answer: Its inhibition is inactive: -4.48%.

Question: With `O=[As](O)(O)c1cccnc1` as the molecule, how does the inhibition read?
Answer: The inhibition was inactive: 10.4%.

Question: For `COc1cc(C(=O)NCC2(N3CCOCC3)CCCCC2)cc(Cl)c1OC(C)C`, which inhibition is on record?
Answer: Its inhibition is inactive: 11.4%.

Question: Which inhibition does the source give for `CS(=O)(=O)c1ccc(Cl)c(NC(=O)COC(=O)C(O)(c2ccccc2)c2ccccc2)c1` here?
Answer: Its inhibition is inactive: -13.9%.

Question: Which inhibition does the source give for `Cc1cccc(OCC(=O)OC2CN3CCC2CC3)c1` (configuration not stated) here?
Answer: Its inhibition is inactive: -8.87%.

Question: With `O=[As](O)(c1cccc(O)c1)c1cccc(O)c1` as the molecule, how does the inhibition read?
Answer: The inhibition was inactive: 0.26%.

Reference: PubChem BioAssay AID1347056 (Sanford-Burnham Center for Chemical Genomics, 2019)
